According to paper PMC3504066, “Gefitinib Analogue V1801 Induces Apoptosis of T790M EGFR-Harboring Lung Cancer Cells by Up-Regulation of the BH-3 Only Protein Noxa” (PLoS ONE, 2012):

Key:
[1] = tested on: phosphorylated EGFR (p-EGFR); assay: Western blot of phosphorylated EGFR in NCI-H1975 cells; assay type: cell-based; settings: 12 h
Procedure: (§1) Cells were suspended in lysis buffer (50 mM Tris-HCl (pH 7.4), 150 mM NaCl, 1% triton X-100, 1% sodium deoxycholate, 0.1% SDS, 1 mM Na3VO4, 1 mM NaF, 1 mM EDTA, 1 mM PMSF, complete protease inhibitor cocktail) and cleared by centrifugation to obtain whole-cell lysates. Equal amounts of samples were separated by SDS-PAGE, transferred to nitrocellulose and immunoblotted with antibody indicated.

[2] = tested on: phosphorylated EGFR (p-EGFR); assay: Western blot of phosphorylated EGFR in HCC827 cells; assay type: cell-based; settings: gefitinib-sensitive HCC827 cells, 12 h
Procedure: as §1

SMILES: COc1cc2ncnc(Nc3ccc(F)c(Cl)c3)c2cc1OCCCN1CCOCC1 [Gefitinib, N-(3-chloro-4-fluoro-phenyl)-7-methoxy-6-(3-morpholin-4-ylpropoxy) quinazolin-4-amine]
- down-regulation of phosphorylated EGFR (p-EGFR) [1]: failed to down-regulate
- de-phosphorylation of p-EGFR [2]: induced de-phosphorylation
